{"source": "ChEMBL document CHEMBL5331109", "about": "“Design and Pharmacological Chaperone Effects of N-(4'-Phenylbutyl)-DAB Derivatives Targeting the Lipophilic Pocket of Lysosomal Acid α-Glucosidase” (J Med Chem, 2023)", "test_system": "Lysosomal alpha-glucosidase (Homo sapiens), P10253 [M519V]", "experiment": "Induction of GAA M519V mutant activity in Pompe patient fibroblast cells assessed as fold increase in intracellular activity using 4- methylumbelliferyl-alpha-D-glucopyranoside measured after 7 days at 50 uM relative to control", "type": "cell-based", "conditions": "time 7.0 day", "data": [{"smiles": "CCCCN1C[C@@H](O)[C@H](O)[C@H]1CO", "values": [{"measurement": "fold change (FC)", "result": 9.8}]}]}
